Patent US10308689B2, “Dengue virus (DV) polypeptide sequences, T cell epitopes and methods and uses thereof” (LA JOLLA INSTITUTE FOR ALLERGY AND IMMUNOLOGY, priority 2010, dated 2019)
Ends that are not written are not given here.

test system: splenic CD8+ T cells from DENV3 (D3S5CX) infected HLA transgenic IFN-α/βR−/− mice; experiment: IFNγ ELISPOT, CD8+ T cells of DENV3 (D3S5CX) infected HLA class I transgenic IFN-α/βR−/− mice; type: cell-based, mouse; settings: HLA B*4001 transgenic IFN-α/βR−/− mice, day 7 after DENV3 D3S5CX; SFC/10^6 T cells

Row | Compound | T cell response [SFC]
1 | GEIGAIALDF [NS31598-1607] | 289
2 | AEQTGVSHNL [NS2B1412-1421] | 362
3 | CC[C@H](C)[C@H](NC(=O)[C@@H](NC(=O)[C@H](CCC(N)=O)NC(=O)[C@@H](NC(=O)[C@H](CCC(=O)O)NC(=O)[C@H](CCC(=O)O)NC(=O)CN)C(C)C)C(C)C)C(=O)N[C@@H](C)C(=O)N[C@H](C(=O)O)C(C)C [NS31569-1577] | 293
